{
  "source": "patent EP1991561B1",
  "about": "“BRANCHED MULTIMERIC PEPTIDES FOR TUMOR DIAGNOSIS AND THERAPY” (Universita' Degli Studi di Siena, priority 2006, dated 2007)",
  "system": "HT29 tumors",
  "conditions": "4.05 µmol/kg iv on days 0, 5, 10 and 15",
  "description": "Female CD-1 nude mice (Charles River Laboratories Inc., Wilmington, MA) 6-7 weeks of age (mean weight of 25 g), were injected subcutaneously in the right flank with of 2 x 10^6 HT29 cells.\nTumor volumes were measured daily with a caliper using the following formula: Volume = length x width^2 x Π/6. The tumor volumes for each group were pooled to plot mean tumor growth curves. At the end of the experiment, the mice were sacrificed. Tumors were removed and weighed and the weights compared between treated and control mice.",
  "data": [
    {"substance": "tetrabranched NT(8-13)-PEG-Methotrexate [NT4(8-13)-MTX]", "values": [
      {"measurement": "loss of body weight", "value": "less than 10%"}
    ]}
  ]
}
